Measurements published in patent US8653096B2, “Chemokine receptor antagonists and methods of use thereof” (Millennium Pharmaceuticals, Inc., priority 2001, dated 2014).

Amino acid sequences for entries named in this document (tags omitted).
UniProt P32246, whole entry: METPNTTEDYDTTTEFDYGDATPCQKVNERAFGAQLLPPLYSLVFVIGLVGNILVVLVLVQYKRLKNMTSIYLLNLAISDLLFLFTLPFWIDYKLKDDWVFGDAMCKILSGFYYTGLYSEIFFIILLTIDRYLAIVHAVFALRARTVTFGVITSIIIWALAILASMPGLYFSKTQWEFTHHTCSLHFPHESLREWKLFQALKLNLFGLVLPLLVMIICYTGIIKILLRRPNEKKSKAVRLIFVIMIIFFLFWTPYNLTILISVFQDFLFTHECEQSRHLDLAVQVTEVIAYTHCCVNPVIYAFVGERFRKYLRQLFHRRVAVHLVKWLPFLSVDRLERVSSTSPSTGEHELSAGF

Biological target: RANTES/MIP-1α chemokine receptor (CCR1) in THP-1 cell membranes (Homo sapiens, UniProt P32246)
Test: Receptor binding assay: 125I-RANTES or 125I-MIP-1α binding to THP-1 cell membranes
Settings: inhibitor concentration required for 50% inhibition of specific binding, 125I-RANTES or 125I-MIP-1α as ligand

Row | IC50 | SMILES
1 | < 1000 nM | CNC(=O)/C=C/c1ccc2c(c1)C(=CCCN1CCC(O)(c3ccc(Cl)cc3)CC1)c1cccnc1CO2
2 | < 1000 nM | NC(=O)/C=C/c1ccc2c(c1)C(=CCCN1CCC(O)(c3ccc(Cl)cc3)CC1)c1cccnc1CO2
3 | < 1000 nM | CCCNC(=O)COc1ccc2c(c1)C(=CCCN1CCC(O)(c3ccc(Cl)cc3)CC1)c1cccnc1CO2
4 | < 1000 nM | O=C(Cc1ccc2c(c1)C(=CCCN1CCC(O)(c3ccc(Cl)cc3)CC1)c1cccnc1CO2)N1CCOCC1
5 | < 1000 nM | O=C(Cc1ccc2c(c1)C(=CCCN1CCC(O)(c3ccc(Cl)cc3)CC1)c1cccnc1CO2)NC1CC1
6 | < 1000 nM | OC1(c2ccc(Cl)cc2)CCN(CCC=C2c3cc(OCC4CCCCO4)ccc3OCc3ncccc32)CC1 (stereo not drawn)
7 | < 1000 nM | CC(C)(Oc1ccc2c(c1)C(=CCCN1CCC(O)(c3ccc(Cl)cc3)CC1)c1cccnc1CO2)C(=O)NCCCO
8 | < 1000 nM | O=C(c1ccc2c(c1)C(=CCCN1CCC(O)(c3ccc(Cl)cc3)CC1)c1cccnc1CO2)N1CCOCC1
9 | < 1000 nM | O=C(Cc1ccc2c(c1)C(=CCCN1CCC(O)(c3ccc(Cl)cc3)CC1)c1cccnc1CO2)NCCO
10 | < 1000 nM | O=C(COc1ccc2c(c1)C(=CCCN1CCC(O)(c3ccc(Cl)cc3)CC1)c1cccnc1CO2)NC1CC1
11 | < 1000 nM | OCCCOc1ccc2c(c1)C(=CCCN1CCC(O)(c3ccc(Cl)cc3)CC1)c1cccnc1CO2
12 | < 1000 nM | CN(C)C(=O)CCc1ccc2c(c1)C(=CCCN1CCC(O)(c3ccc(Cl)cc3)CC1)c1cccnc1CO2
13 | < 1000 nM | CCN(CC)C(=O)/C=C/c1ccc2c(c1)C(=CCCN1CCC(O)(c3ccc(Cl)cc3)CC1)c1cccnc1CO2
14 | < 1000 nM | O=C(COc1ccc2c(c1)C(=CCCN1CCC(O)(c3ccc(Cl)cc3)CC1)c1cccnc1CO2)NCCO
15 | < 1000 nM | O=C(c1ccc2c(c1)C(=CCCN1CCC(O)(c3ccc(Cl)cc3)CC1)c1cccnc1CO2)N1CCCC1
